Experimental data from patent publication US10092621B2 (dated 2018).

In the case of ulimorelin, the “moderate AE meeting protocol-defined stopping criteria (at least 2 subjects)” value (healthy volunteers; 300 μg/kg q8H) is reported as “infusion site irritation”, the Dose limiting toxicity (healthy volunteers; SAD part of the study (600, 900, 1200 μg/kg)) is reported as “not achieved” and the “single ascending dose at which mild heart rate slowing first manifested” value (healthy volunteers; healthy subjects, SAD) is reported as 0.6 mg/kg. The “Cpfree at Tmax (Cmaxfree)” value (at 600 μg/mL (so in the source), dialysis of plasma from healthy volunteers, TQT study) was 10 to 25 ng/mL and the “Total Cmax” value (mean, healthy subjects, 30 minute IV infusion of 600 μg/kg) was 7900 ng/mL.
